The source of these data is PubChem BioAssay AID602472 (Sanford-Burnham Center for Chemical Genomics, 2012).

SMILES strings stand for the structures. Only a part is listed here, and it is no random draw. Active and inactive are the calls of the source. No stated cut-off is given here; in the data, active means inhibition above about 40%; inactive means the rest.

The test is described as follows: NF-kB reporter suppression in CF airway cells – cell-based, GFP fluorescence, single concentration, confirmation (AID 602472).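 Further: stimulus PAF is a Pseudomonas aeruginosa filtrate and not platelet activating factor; plate controls were DMSO wells with stimulus for no effect and unstimulated DMSO wells for full effect.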 Particulars: KKLEB CF airway cells, PAF-induced NF-kB-GFP fluorescence, overnight; at 5 µM; stronger effect = higher value. The procedure, abridged:
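Material: KKLEB immortalized cystic fibrosis airway epithelial cells with NFkB-GFP reporter; buffer or medium: 2% FBS cell medium, serum-free stimulus medium; also added: PAF stimulation; dosing: 5 µM single dose; times: 2 h compound pretreatment at 37 °C, overnight PAF exposure; detection: GFP fluorescence of NFkB reporter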
Regarding `CCCCn1nnnc1C(c1cccs1)N1CCC(n2c(=O)[nH]c3ccccc32)CC1` (stereo unspecified), the inhibition was inactive: 12.9%.

The term inhibition denotes the relative decrease from the control value, in per cent.
